Reference: patent US4336192A, “5,6-Dihydro-11-alkylene-morphanthridin-6-ones” (BASF Aktiengesellschaft, priority 1979, dated 1982)

System: female NMRI mice
Test: Anti-cholinergic effect: protection against death from Physostigmin
Conditions: mouse, in vivo
Description: 3. Anti-cholinergic effect
A lethal dose (0.825 mg/kg) of Physostigmin is administered subcutaneously to groups of 10 female NMRI mice. The test substances are administered orally 30 minutes before administering the Physostigmin.
The ED 50% is the dose of substance which protects 50% of the animals against death from Physostigmin.

CN1CCN(C2=Nc3ccccc3C(=CC#N)c3ccccc32)CC1 (mixture of isomers) [Example 17 (cis-trans mixture), cis,trans-11-cyanomethylene-6-(4-methyl-piperazin-1-yl)-morphanthridine]
Anti-cholinergic effect R.A. (relative activity): 2.25
